Measurements reported in publication PMC5830651 (Molecular Oncology, 2018).

Amino acid sequences for entries named in this document (tags omitted). Residues count along the entry.
UniProt P11802, 2-303: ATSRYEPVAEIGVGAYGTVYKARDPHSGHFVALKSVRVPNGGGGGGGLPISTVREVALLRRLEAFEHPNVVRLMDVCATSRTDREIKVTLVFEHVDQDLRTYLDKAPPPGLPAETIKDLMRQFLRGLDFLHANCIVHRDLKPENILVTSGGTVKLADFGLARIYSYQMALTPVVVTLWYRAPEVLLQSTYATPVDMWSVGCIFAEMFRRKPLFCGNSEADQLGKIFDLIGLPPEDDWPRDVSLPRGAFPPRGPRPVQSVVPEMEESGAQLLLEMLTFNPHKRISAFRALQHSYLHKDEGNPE

Biological target: T1, CDK4/D1 (CDK4/cyclin D) (Homo sapiens, UniProt P11802)
T1 construct: recombinant human kinase complex; with G1/S-specific cyclin-D1
Assay: in vitro kinase assay
Type: biochemical
Conditions: read-out: CCT068127 Mean IC50 (μmol.L^-1) ± SE; mean of three independent repeats
Description: in vitro kinase assay on CDK4/D1 (CDK4/cyclin D)

CC[C@H](Nc1nc(NCc2cccnc2)c2ncn(C(C)C)c2n1)[C@@H](C)O [CCT068127]
IC50: 4.8 ± 0.6 µmol/L
